Binding of CDR-mutated scFvs to a peptide of the spike HR2 region

Reference: Engelhart et al. 2022, doi:10.1038/s41597-022-01779-4. File: FLAb, binding data.

Antigen: PDVDLGDISGINAS, a 14-residue peptide of the SARS-CoV-2 spike HR2 region.

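Library AAYL50 holds single substitutions and randomly drawn double and triple substitutions in the CDRs. Affinity was read by AlphaSeq, a pooled yeast mating assay with surface-displayed partners. Pairs that bind mate more often; barcode pairs of the diploids are counted by sequencing. Each replicate has its own calibration line, from reference interactions of the BCL2 family. Mating was done three times.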

Ab-14 is the parent antibody, in scFv form: VH, then a (GGGGS)3 linker, then VL. The heavy chain is unchanged in all variants.
VH: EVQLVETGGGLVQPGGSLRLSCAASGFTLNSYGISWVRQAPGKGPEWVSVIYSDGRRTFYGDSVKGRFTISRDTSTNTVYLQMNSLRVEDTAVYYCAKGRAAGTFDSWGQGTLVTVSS
VL: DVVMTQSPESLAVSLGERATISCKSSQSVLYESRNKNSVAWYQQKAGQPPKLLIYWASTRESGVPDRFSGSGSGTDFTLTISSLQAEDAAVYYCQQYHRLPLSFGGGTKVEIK

Substitutions are numbered in sequence along the VL above, starting at 1 (not Kabat).
This list gathers variants with a substitution at Q27 (VL, numbered from residue 1).
The Kd shown is the geometric mean over detected replicates; a lower Kd is a better binder.
An entry "nd" has no value in the source: the pair was not observed among the diploids in any replicate. This suggests poor binding but is not conclusive.
For reference, the parent read 4.4 nM as the reference entry and 48 nM as a member of this library.
Nonspecific signal, from three strains lacking the peptide, appeared in 18% of pairings of library AAYL50, centred on 15 µM (5% of these signals below 970 nM); values are not corrected for it.

changes	apparent Kd	seen in
Q27S/R60H/S103N	480 µM	2/3
Q27D/W56I/Y97D	4.3 µM	2/3
Q27L/N35C	83 nM	3/3
S25C/Q27T/E61A	61 µM	1/3
Q27R/W56K	nd	0/3
Q27N/T59I/S103Y	13 nM	3/3
Q27I/V39Q/R99T	nd	0/3
Q27C/A40C/Y97V	400 nM	2/3
Q27L/A57G/Q96P	850 nM	1/3
K24N/Q27S/P101V	8.6 µM	1/3
Q27L/Y31W/N35P	24 nM	3/3
K24H/Q27D	7.5 nM	3/3
Q27I/N35I/L102Q	nd	0/3
Q27C/E32I/Q96M	230 µM	2/3
K24L/Q27K/L102Q	450 nM	3/3
K24Q/Q27T/V39C	nd	0/3
Q27Y/S38Y/R60Y	39 nM	1/3
Q27C/A57Y/P101A	4.6 µM	2/3
Q27C/Q96T/H98F	nd	0/3
Q27V/R34L/S58Q	33 nM	3/3
Q27G/W56K/S103A	19 nM	3/3
Q27V/S62W/Q95F	36 nM	3/3
S25N/Q27V/K36I	64 nM	3/3
S26G/Q27D/R99H	11 nM	3/3
Q27G/Y31V/R34D	2.7 nM	3/3
Q27I/V39T/R60D	nd	0/3
S25Q/Q27L/H98A	4.1 nM	3/3
Q27P/S33H/L100Y	38 nM	3/3
K24P/S26L/Q27V	7.9 µM	2/3
Q27H/N37C	190 nM	3/3
Q27P/Y97C/L100D	4.3 nM	3/3
Q27D/V39Q/Q95H	30 µM	2/3
K24Y/Q27N/K36S	nd	0/3
Q27V/A40T/Y97T	nd	0/3
Q27W/Y31F/V39L	39 nM	3/3
Q27D/V39I/L102V	nd	0/3
Q27L/A57P	9.3 µM	2/3
Q27H/S28F/S33Y	3.0 µM	3/3
Q27P/N35T/N37L	3.9 µM	1/3
Q27R/L30F/H98Q	8.1 nM	3/3
Q27G/Q96D	13 nM	3/3
Q27N/S28P	33 nM	3/3
Q27V/R34C/A57S	290 nM	3/3
Q27L/V29W/E32I	59 nM	3/3
S26E/Q27M/R34Y	5.6 nM	3/3
K24M/Q27E/W56Q	1.6 nM	3/3
Q27R/K36S/S62F	120 nM	3/3
K24E/Q27P/P101H	nd	0/3
Q27C/R60Y/Q96G	8.1 µM	1/3
Q27V/Y31F	3.9 nM	3/3
Q27Y/E61H/S62K	1.7 µM	3/3
Q27G/R60D/S103P	190 µM	1/3
Q27A/L30M/H98L	nd	0/3
Q27N/Y31A/N35V	700 nM	3/3
Q27F/S38M/A40I	330 µM	1/3
Q27M/S58V/P101K	480 nM	3/3
Q27P/S58A	nd	0/3
Q27Y/A40W/T59E	nd	0/3
S26A/Q27H/R34F	5.2 nM	3/3
Q27G/V29K/L100R	42 nM	3/3
Q27K/S33W/W56A	38 µM	2/3
Q27C/S38D	360 nM	3/3
Q27D/N35M/Y97E	1.4 µM	3/3
Q27K/S28M/L102M	120 nM	3/3
Q27N/S33D	nd	0/3
Q27L/N35F/S103I	620 nM	3/3
S26P/Q27S/P101M	19 µM	1/3
Q27P/L30R/R99S	78 µM	1/3
Q27K/Q95L/L100T	nd	0/3
Q27T/Y31T/W56E	650 pM	3/3
Q27N/N37T/A57N	nd	0/3
Q27E/V29E/H98A	5.8 nM	3/3
Q27E/L30R/K36Y	16 nM	3/3
Q27Y/V29R/P101R	nd	0/3
Q27Y/K36W	13 nM	3/3
Q27F/T59F/L100H	nd	0/3
Q27M/N35M/N37Y	17 nM	3/3
Q27H/N35S/T59Q	19 nM	3/3

Extract of 11 entries:

| changes | apparent Kd | seen in |
|---|---|---|
| K24P/S26L/Q27V | 7.9 µM | 2/3 |
| Q27H/S28F/S33Y | 3.0 µM | 3/3 |
| Q27G/V29K/L100R | 42 nM | 3/3 |
| Q27C/A40C/Y97V | 400 nM | 2/3 |
| Q27I/V39T/R60D | nd | 0/3 |
| Q27R/W56K | nd | 0/3 |
| Q27R/K36S/S62F | 120 nM | 3/3 |
| S26A/Q27H/R34F | 5.2 nM | 3/3 |
| K24L/Q27K/L102Q | 450 nM | 3/3 |
| S26P/Q27S/P101M | 19 µM | 1/3 |
| Q27V/Y31F | 3.9 nM | 3/3 |